Experimental findings from patent publication US4518581A, “Imparting low- or anti-cariogenic property to orally-usable products” (Kabushiki Kaisha Hayashibara Seibutsu Kagaku Kenkyujo, priority 1981, dated 1985) are described below.

The chains behind the UniProt entries cited, without tags or fusion partners. Residues count along the entry.
UniProt P27470, 39-1592: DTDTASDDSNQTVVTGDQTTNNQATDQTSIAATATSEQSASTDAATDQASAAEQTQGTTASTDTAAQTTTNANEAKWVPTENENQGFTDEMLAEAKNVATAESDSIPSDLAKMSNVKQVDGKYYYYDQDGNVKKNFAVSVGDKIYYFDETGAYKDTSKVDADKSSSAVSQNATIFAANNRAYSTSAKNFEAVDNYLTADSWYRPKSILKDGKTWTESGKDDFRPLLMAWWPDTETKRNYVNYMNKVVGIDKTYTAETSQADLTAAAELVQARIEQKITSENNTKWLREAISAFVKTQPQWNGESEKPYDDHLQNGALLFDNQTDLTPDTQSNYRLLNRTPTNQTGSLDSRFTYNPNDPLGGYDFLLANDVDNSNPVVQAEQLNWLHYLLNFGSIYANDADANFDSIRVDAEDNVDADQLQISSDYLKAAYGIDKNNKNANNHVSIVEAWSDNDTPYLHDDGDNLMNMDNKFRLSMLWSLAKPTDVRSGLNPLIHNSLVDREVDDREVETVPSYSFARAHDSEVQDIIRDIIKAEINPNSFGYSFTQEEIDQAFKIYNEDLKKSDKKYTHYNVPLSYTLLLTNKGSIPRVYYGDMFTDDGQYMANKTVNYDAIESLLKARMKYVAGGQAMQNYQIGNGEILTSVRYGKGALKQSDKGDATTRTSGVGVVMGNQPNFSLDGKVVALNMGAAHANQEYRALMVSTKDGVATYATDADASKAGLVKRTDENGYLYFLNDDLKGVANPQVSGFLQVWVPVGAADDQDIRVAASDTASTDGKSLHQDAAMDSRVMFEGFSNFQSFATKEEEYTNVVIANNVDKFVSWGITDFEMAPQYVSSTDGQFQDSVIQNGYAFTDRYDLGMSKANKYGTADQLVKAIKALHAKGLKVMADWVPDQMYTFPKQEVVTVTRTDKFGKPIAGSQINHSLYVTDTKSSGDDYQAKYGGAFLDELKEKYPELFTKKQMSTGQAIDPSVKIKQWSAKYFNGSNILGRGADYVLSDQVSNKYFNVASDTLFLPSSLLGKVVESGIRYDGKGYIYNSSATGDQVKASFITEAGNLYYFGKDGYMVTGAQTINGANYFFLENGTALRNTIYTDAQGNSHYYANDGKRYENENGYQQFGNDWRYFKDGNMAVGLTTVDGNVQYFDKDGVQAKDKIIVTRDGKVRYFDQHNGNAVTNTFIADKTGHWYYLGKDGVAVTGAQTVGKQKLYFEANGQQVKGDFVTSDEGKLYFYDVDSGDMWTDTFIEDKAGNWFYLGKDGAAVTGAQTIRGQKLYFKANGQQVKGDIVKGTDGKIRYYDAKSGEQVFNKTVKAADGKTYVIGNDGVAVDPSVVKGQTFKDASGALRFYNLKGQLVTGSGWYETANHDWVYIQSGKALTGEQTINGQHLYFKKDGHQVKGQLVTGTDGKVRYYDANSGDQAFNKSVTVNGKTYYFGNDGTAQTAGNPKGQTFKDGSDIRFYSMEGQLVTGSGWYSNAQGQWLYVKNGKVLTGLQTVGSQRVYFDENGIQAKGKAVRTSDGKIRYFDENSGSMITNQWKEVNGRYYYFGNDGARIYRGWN

The target of experiment [1] is T1, water-insoluble glucan producing enzyme (Streptococcus downei, UniProt P27470).
T1 construct: endogenous in cells; host or cells: Streptococcus mutans 6715 strain (today S. sobrinus), culture supernatant, ammonium sulfate precipitate, dialyzed
As to the kind of experiment: Effect of saccharides on formation of water-insoluble glucan from sucrose (Experiment 3). It is filed as biochemical, Streptococcus mutans 6715 strain. To be noted: 1 ml 4 w/v % sucrose plus 1 ml 4 w/v % saccharide, 0.02 units enzyme, 37° C., 16 hours. The method, then:
After completion of the cultivation, the culture was separated into cell precipitant and supernatant. Thereafter, to the supernatant was added with ammonium sulfate to give 60% saturation, and the resultant precipitant was dialyzed against 0.1M phosphate buffer (pH 7.2) to obtain an aqueous solution containing the enzyme.
The titers of the enzyme were assayed as follows: A mixture solution, consisting of 1 ml of 0.2M aqueous sucrose solution, 1 ml of water, 1 ml of 0.1M phosphate buffer containing 0.05 w/v % NaN3, and 0.5 ml of the enzyme solution (below 0.05 units), is incubated at 37° C. for 9 hours, followed by centrifugation of the reaction mixture. The resultant precipitant is mixed with 4 ml of 0.5N sodium hydroxide solution, and then incubated at this temperature for an additional one hour to dissolve the precipitant. The amount of water-insoluble glucan formed during the enzymatic reaction is then measured. One unit of the enzyme is defined as the amount of enzyme that transfers 1 μmole glucose from sucrose to the water-insoluble glucan in one minute.
Effects of some saccharides on the formation of water-insoluble glucan were tested: Water-insoluble glucan formation and inhibition thereof were determined according to the enzyme assay method as described in EXPERIMENT 1, except that the mixture solution contained sucrose, or sucrose and each saccharide as listed in TABLE I. The experiment was carried out as follows: A mixture solution, consisting of 1 ml of 4 w/v % aqueous sucrose solution, 1 ml of 4 w/v % aqueous solution of each saccharide as listed in TABLE I, 1.5 ml of 0.1M phosphate buffer containing 0.05 w/v % NaN3, and 0.5 ml of the enzyme solution (0.02 units), was incubated at 37° C. for 16 hours, and the water-insoluble glucan formation in the reaction mixture was determined according to the enzyme assy method.
In a control experiment, 1 ml of the above described saccharide solution was replaced with the same amount of water.
The inhibition degree was calculated with following equation:
Inhibition degree (%)=100-A/B×100
where A and B are respective amounts of the water-insoluble glucan formed (μg/ml) when the mixture solution contained sucrose or sucrose and each of the saccharides.

Experiment [2] addresses T1, water-insoluble glucan producing enzyme. The experiment is described as above. It is filed as biochemical, Streptococcus mutans 6715 strain. Conditions: saccharide reduced to 10% against sucrose: 1 ml 4 w/v % sucrose plus 1 ml 0.4 w/v % saccharide, 37° C., 16 hours.

Molecules are shown by their SMILES.

On to `OC[C@H]1O[C@H](OC[C@H]2OC(O)[C@H](O)[C@@H](O)[C@@H]2O)[C@H](O)[C@@H](O)[C@H]1O` (stereo partly drawn) [Melibiose], for which, in experiment [1], the “B: inhibition degree on water-insoluble glucan formation” value (from here on “B: inhibition degree”) stood at 0%.

As for `OC[C@H]1O[C@H](OC[C@H]2OC(O)[C@H](O)[C@@H](O)[C@@H]2O)[C@H](O)[C@@H](O)[C@@H]1O` (stereo partly drawn) [Isomaltose], the “C: inhibition degree of water-insoluble glucan formation” value was 11% in experiment [2] and “extremely low inhibition” in experiment [2] (listed as isomaltose). The “B: inhibition degree” value was 76% in experiment [1] and “relatively high inhibition degree” in experiment [1] (listed as isomaltose).

As for `OC[C@H]1O[C@@H](OC[C@H]2OC(O)[C@H](O)[C@@H](O)[C@@H]2O)[C@H](O)[C@@H](O)[C@@H]1O` (stereo partly drawn) [Gentiobiose], the “B: inhibition degree” value in experiment [1] stood at 0%.
